Measurements: publication PMC5701749 (Biochemistry, 2017)
Read-outs that look alike come from different tables or passages of the source.

The chains behind the UniProt entries cited, without tags or fusion partners.
UniProt P21447, whole entry: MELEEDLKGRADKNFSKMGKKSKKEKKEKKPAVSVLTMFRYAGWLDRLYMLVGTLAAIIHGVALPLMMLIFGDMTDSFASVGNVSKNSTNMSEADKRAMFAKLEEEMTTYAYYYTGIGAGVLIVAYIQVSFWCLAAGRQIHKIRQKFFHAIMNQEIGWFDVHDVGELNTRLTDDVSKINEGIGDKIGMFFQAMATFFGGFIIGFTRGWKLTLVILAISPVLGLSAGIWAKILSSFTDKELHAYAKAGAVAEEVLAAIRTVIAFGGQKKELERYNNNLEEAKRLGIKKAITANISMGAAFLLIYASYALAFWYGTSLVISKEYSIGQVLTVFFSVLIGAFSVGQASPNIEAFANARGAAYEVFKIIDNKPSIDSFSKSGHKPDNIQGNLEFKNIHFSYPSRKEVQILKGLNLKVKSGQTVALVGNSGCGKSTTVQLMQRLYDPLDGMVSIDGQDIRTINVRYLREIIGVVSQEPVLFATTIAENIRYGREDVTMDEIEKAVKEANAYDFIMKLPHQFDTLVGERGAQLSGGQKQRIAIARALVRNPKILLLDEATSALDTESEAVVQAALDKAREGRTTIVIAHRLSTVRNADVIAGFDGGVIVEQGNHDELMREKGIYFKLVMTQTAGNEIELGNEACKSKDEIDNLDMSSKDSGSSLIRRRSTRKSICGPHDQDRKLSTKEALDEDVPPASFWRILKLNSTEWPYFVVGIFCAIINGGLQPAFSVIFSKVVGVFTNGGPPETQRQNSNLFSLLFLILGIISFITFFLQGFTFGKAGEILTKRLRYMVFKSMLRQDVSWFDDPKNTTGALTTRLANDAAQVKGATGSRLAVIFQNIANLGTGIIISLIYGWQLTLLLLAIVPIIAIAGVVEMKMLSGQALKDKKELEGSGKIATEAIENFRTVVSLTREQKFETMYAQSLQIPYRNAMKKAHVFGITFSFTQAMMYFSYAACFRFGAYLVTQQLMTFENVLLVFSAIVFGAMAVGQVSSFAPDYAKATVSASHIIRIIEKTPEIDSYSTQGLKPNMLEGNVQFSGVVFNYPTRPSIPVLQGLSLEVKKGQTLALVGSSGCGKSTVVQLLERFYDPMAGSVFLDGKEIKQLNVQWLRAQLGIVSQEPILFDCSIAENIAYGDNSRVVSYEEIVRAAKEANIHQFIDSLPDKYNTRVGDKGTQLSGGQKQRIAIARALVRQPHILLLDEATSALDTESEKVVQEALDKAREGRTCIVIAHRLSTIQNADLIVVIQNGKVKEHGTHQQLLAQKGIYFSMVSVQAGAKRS
UniProt P08183, whole entry: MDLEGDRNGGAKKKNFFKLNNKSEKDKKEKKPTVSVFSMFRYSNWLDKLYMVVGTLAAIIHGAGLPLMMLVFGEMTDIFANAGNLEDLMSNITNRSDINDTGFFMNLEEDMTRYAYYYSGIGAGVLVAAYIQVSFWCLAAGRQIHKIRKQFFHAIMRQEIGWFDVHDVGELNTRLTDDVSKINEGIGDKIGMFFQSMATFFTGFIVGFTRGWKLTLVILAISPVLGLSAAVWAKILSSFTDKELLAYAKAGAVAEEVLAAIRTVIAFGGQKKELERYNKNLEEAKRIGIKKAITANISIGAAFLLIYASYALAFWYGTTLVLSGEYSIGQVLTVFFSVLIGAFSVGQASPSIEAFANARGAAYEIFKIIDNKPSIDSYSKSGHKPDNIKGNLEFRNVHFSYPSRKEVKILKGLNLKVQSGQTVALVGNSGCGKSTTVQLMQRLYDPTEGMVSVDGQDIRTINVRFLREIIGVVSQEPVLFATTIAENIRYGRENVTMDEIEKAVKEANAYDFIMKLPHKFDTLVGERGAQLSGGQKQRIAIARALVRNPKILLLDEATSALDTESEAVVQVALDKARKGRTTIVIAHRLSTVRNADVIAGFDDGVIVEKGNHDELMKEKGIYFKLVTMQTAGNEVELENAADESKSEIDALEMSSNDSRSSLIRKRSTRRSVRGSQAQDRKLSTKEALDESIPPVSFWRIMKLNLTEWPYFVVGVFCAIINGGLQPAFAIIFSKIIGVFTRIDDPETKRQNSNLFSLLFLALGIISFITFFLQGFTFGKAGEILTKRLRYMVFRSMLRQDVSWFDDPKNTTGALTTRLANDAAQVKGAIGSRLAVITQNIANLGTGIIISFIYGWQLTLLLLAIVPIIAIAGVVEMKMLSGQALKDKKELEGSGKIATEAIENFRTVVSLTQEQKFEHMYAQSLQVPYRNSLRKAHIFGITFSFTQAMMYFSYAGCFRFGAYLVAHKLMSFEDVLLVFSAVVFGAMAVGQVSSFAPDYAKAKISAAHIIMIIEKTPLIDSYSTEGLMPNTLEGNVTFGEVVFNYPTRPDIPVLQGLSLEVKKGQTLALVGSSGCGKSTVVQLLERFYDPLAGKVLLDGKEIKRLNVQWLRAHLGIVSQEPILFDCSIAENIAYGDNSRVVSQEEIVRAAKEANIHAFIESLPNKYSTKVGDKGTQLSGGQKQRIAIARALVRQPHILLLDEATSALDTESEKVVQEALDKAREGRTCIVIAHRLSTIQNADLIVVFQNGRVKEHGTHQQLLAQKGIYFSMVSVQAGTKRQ

Legend:
[1] = target: T1, mouse P-gp mdr1a (Mus musculus, UniProt P21447); details: E. coli lipid nanodiscs; footnote d = ambiguous, lack of ATPase stimulation
[2] = target: T1, mouse P-gp mdr1a; details: DMPC nanodiscs; footnote d = ambiguous, lack of ATPase stimulation
[3] = target: human P-gp (Homo sapiens, UniProt P08183); experiment: ATPase assay in human P-gp vesicles; details: concentration range studied

| Substance | K1 (substrate concentration for half-maximal stimulation of ATPase activity) [1] | K1 (substrate concentration for half-maximal stimulation of ATPase activity) [2] [µM] | stimulation of ATPase activity (in words) [3] |
| --- | --- | --- | --- |
| BODIPY vinblastine [BD-vinblastine] | 0.05 ± 0.1 ^d μM | 0.04 ± 0.01 | – |
| Oregon Green 488 Paclitaxel [Flutax-2] | – | – | did not stimulate ATPase activity |
